Experiments:
Myeloperoxidase [1] = target: T1, Myeloperoxidase (Homo sapiens, UniProt P05164); experiment: Inhibition of MPO (unknown origin) measured after 15 mins in presence of H2O2 by chemiluminescence assay
T1 sequence (P05164 whole entry): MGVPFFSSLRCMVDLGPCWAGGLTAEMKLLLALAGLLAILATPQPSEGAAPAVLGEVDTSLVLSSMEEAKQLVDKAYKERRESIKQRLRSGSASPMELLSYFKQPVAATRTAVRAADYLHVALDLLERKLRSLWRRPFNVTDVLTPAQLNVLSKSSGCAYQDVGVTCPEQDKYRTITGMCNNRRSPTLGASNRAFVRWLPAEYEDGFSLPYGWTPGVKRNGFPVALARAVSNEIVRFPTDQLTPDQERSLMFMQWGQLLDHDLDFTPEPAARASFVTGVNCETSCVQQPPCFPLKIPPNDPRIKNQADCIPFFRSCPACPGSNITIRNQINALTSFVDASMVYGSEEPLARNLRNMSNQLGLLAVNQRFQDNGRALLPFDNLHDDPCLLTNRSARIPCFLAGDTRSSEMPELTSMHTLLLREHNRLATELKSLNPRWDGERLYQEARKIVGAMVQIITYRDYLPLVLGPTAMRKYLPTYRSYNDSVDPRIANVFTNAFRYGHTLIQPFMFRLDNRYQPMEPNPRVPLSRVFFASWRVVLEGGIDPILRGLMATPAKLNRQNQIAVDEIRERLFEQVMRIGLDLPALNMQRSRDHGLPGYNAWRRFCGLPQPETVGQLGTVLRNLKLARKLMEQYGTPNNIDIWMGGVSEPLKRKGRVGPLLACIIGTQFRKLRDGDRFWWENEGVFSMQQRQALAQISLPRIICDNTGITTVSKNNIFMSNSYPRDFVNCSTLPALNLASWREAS

Myeloperoxidase [2] = target: T1, Myeloperoxidase; experiment: Inhibition of MPO in human HL-60 cells measured after 15 mins in presence of H2O2 by chemiluminescence assay; type: cell-based

SMILES | IC50 (Myeloperoxidase [1]; read-out: IC50) [nM] | IC50 (Myeloperoxidase [2]) [nM] | IC50 (Myeloperoxidase [1]; read-out: pIC50 (converted)) [nM]
C[C@@H](N)c1cc(Cl)ccc1Cn1c(=S)[nH]c(=O)c2[nH]cnc21 | 3.6 | 3100 | 
COc1ccc(Cl)cc1-c1cc(=O)[nH]c(=S)n1CC(N)=O [PF-06282999] | 187 |  | 
NCc1cc(Cl)ccc1Cn1c(=S)[nH]c(=O)c2[nH]ccc21 |  | 11000 | 15.8

Source: ChEMBL document CHEMBL5126625, “Discovery of AZD4831, a Mechanism-Based Irreversible Inhibitor of Myeloperoxidase, As a Potential Treatment for Heart Failure with Preserved Ejection Fraction” (J Med Chem, 2022)
